Source: PubChem BioAssay (National Center for Advancing Translational Sciences (NCATS))
DT40 TDP1 CPT = growth inhibition of DT40 Tdp1-/-;hTDP1 cells with camptothecin (screen for TDP1 inhibitors); chicken DT40 Tdp1-/-;hTDP1 cells + 20 nM CPT, ATP luminescence, 48 h; Potency, µM (top dose mostly 46.2 µM), without a hit: top-dose activity change, negative = growth inhibition, usual class: inhibitors; hit rate 12% among 420,000; AID 686979; note: potency is the fitted concentration of half-maximal effect; % is set by controls: 0 for no effect and ±100 for the full control effect; nearly all actives have a fitted effect of over 55% in size
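Chicken DT40 Tdp1-/- cells complemented with human TDP1, 400 cells/well, exposed to compounds plus 20 nM camptothecin for at least 48 h at 37 C; viability read as ATP content by CellTiter-Glo luminescence.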
miR-21 reporter = miR-21 reporter, rising signal; HeLa miR-21 FLuc reporter, luciferase, 48 h; Potency, µM (top dose mostly 38.3 µM), without a hit: at the top dose reporter change, positive = more light; 340,000 tested, under 10 active; active = well fitted rising curve with a large enough effect; inconclusive = small, poorly fitted or top-dose-only effect; inactive = no such curve, though single readings can be large or run the other way;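 note: % of control where 0% means no effect; miR-21 action dims this reporter so a rising signal means less miR-21 action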
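Luminescence from a firefly luciferase reporter carrying a miR-21 binding site downstream, stably expressed under a CMV promoter in HeLa cells that make miR-21 endogenously, reports miRNA modulation after 48 h compound exposure up to approximately 40uM final.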
DT40 TDP1 no CPT = qHTS for Inhibitors of human tyrosyl-DNA phosphodiesterase 1 (TDP1): qHTS in cells in absence of CPT | DT40 Tdp1-/- hTDP1 cells, no CPT, ATP luminescence, 48 h | Potency, µM (titrated, usually from 46.2 µM), inactives show at the top dose activity change, negative = growth inhibition, hits mostly inhibitors | hit rate 15% among 420,000; note: potency is the fitted concentration of half-maximal effect; % is set by controls: 0 for no effect and ±100 for the full control effect; nearly all actives have a fitted effect of over 55% in size
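Growth of hTDP1-complemented DT40 Tdp1-knockout cells is measured by ATP luminescence after at least 48 hr compound exposure at 37 °C, with DMSO substituting for the 20 nM CPT used in the parallel screen.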
TDP1 block = inhibitors of human tyrosyl-DNA phosphodiesterase TDP1 | Q9NUW8 | recombinant TDP1, AlphaScreen DNA substrate cleavage | Potency, µM (highest dose often 130 µM), for the others: at the highest dose activity change, negative = inhibition, usual class: inhibitors | hit rate 0.28% among 350,000 | AID 485290; note: potency is the fitted concentration of half-maximal effect; % is set by controls: 0 for no effect and ±100 for the full control effect; nearly all actives have a fitted effect of over 40% in size
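Here, a 5' biotin and 3' phosphotyrosine-FITC DNA oligonucleotide reports Tdp1 activity: intact substrate bridges AlphaScreen beads, while cleavage leaves a 3' phosphate and drops signal. All incubations at room temperature.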
uPA generation = cell surface uPA generation inhibition. Potency, µM (highest dose often 38.3 µM), for inactives: at the highest dose activity change, negative = inhibition, actives largely listed as inhibitors. hit rate 0.31% among 330,000. cell surface uPA generation assay, qHTS; active = well fitted inhibition curve with a large enough effect; inconclusive = small, poorly fitted or top-dose-only effect; inactive = no such curve, though single readings can be large or run the other way; tested in mouse RAW 264.7 cells; note: potency is the fitted concentration of half-maximal effect; % is set by controls: 0 for no effect and ±100 for the full control effect; nearly all actives have a fitted effect of over 55% in size
An asterisk follows results filed as active; ? = inconclusive; / = no result given; [ ] = dose if it differs, or a comment. The list is not random: actives were taken first. Their share in the collection is about 16%. Unless noted, calls come from the whole dose curve; as a rule, active = well fitted curve in the direction sought with a large enough effect; inconclusive = small, poorly fitted or top-dose-only effect, or another doubt; inactive = no such curve, though single readings can be large; an effect the other way counts as inactive or inconclusive.

Values run as follows: TDP1 block	uPA generation	DT40 TDP1 CPT	DT40 TDP1 no CPT	miR-21 reporter
CS(=O)(=O)c1ccc(N)c(SSc2cc(S(C)(=O)=O)ccc2N)c1
    -9.7%	-3.2%	?	?	/
CCOc1cccc(C(=O)Nc2ccc(N3CCCC3)cc2)c1
    /	-7.4%	-18.7%	16.4µM*	-24.3%
CCCC(=O)N1CCN(c2ccc(NC(=S)NC(=O)c3cccc(C)c3)cc2)CC1
    8.2%	-5.9%	?	23.1µM*	-0.2%
CC(C)Oc1cccc(C(=O)NC(=S)Nc2ccc(N3CCN(C)CC3)cc2)c1
    8.6%	?	?	?	-14.9%
COc1ccccc1-c1noc(Cn2cc(S(=O)(=O)N3CCCC3)ccc2=O)n1
    0.5%	7.8%	-13.8%	-24.3%	/
COc1cc(C2NC(=O)NC(C)=C2C(=O)OC2CCCC(C)C2)cc(Br)c1O (centres undefined)
    /	21.5%	-20.0%	-21.6%	-1.2%
CCN1CCc2nc3sc(C(=O)N4CCc5ccccc5C4)c(N)c3cc2C1
    3.3%[0.0935 µM]	0.1%	?	?	-9.4%
Cc1cc(C)c2c(N)c(C(=O)N3CCc4ccccc4C3)sc2n1
    -6.0%	-7.7%	?	29.1µM*	-26.5%
CCOC(=O)CCc1c(C)c2ccc(OCc3cc([N+](=O)[O-])ccc3OC)cc2oc1=O
    2.9%	-1.1%	25.9µM*	23.1µM*	-7.7%
CCOC(=O)CCc1c(C)c2ccc(OCc3cc([N+](=O)[O-])ccc3OC)c(C)c2oc1=O
    0.0%	/	/	/	-0.3%

Structures above that contain four or more nitrogen atoms, in the order listed:
Values run as follows: TDP1 block	uPA generation	DT40 TDP1 CPT	DT40 TDP1 no CPT	miR-21 reporter
CCCC(=O)N1CCN(c2ccc(NC(=S)NC(=O)c3cccc(C)c3)cc2)CC1
    8.2%	-5.9%	?	23.1µM*	-0.2%
CC(C)Oc1cccc(C(=O)NC(=S)Nc2ccc(N3CCN(C)CC3)cc2)c1
    8.6%	?	?	?	-14.9%
COc1ccccc1-c1noc(Cn2cc(S(=O)(=O)N3CCCC3)ccc2=O)n1
    0.5%	7.8%	-13.8%	-24.3%	/
CCN1CCc2nc3sc(C(=O)N4CCc5ccccc5C4)c(N)c3cc2C1
    3.3%[0.0935 µM]	0.1%	?	?	-9.4%

(continued)
Values run as follows: TDP1 block	uPA generation	DT40 TDP1 CPT	DT40 TDP1 no CPT	miR-21 reporter
COc1ccc(N2C(=O)/C(=C\c3ccco3)N=C2SCC(=O)N(C(C)C)C(C)C)cc1Cl
    2.7%	9.8%	16.4µM*	16.4µM*	-11.4%
O=C1OC(Nc2ccccn2)c2ccccc21 (centres undefined)
    1.0%	1.1%	3.5%	-2.5%	-0.1%
CC1CC(C)CN(C(=O)COC(=O)c2nn(C)c(=O)c3ccccc23)C1 (centres undefined)
    /	-5.4%	-1.8%	-9.8%	/
O=C(Nc1nc(-c2ccccn2)cs1)c1ncc(Cl)c(Cl)c1Cl
    9.5%	1.0%	-104.6%	3.26µM*	17.9%
CCc1sc(C(=O)NNC(=O)CNC(=O)c2ccccc2F)cc1C
    0.5%	-1.8%	-10.4%	-9.2%	/
Cn1cccc1C(=O)Nc1nc(-c2ccccn2)cs1
    -2.9%	-9.2%	2.59µM*	4.11µM*	5.7%
O=C(Nc1nc(-c2ccccn2)cs1)c1ccc(Cl)s1
    9.8%	?	1.03µM*	0.92µM*	15.2%
CCc1sc(C(=O)NCc2ccccc2)cc1C
    -7.7%	0.5%	20.6µM*	13µM*	-23.8%
O=C(Nc1nccs1)c1ccc(Cl)s1
    3.9%	-1.7%	-1.6%	-6.8%	-37.8%
O=C(NC1CCNCC1)C1CCCCC1
    /	-2.2%	-0.4%	0.3%	3.2%

(cont.)
Values run as follows: TDP1 block	uPA generation	DT40 TDP1 CPT	DT40 TDP1 no CPT	miR-21 reporter
CCCOc1ccc(C(=O)Nc2ccc(N3CCN(C(=O)c4ccco4)CC3)cc2)cc1
    0.6%	0.1%	?	?	-0.9%
CCc1sc(C(=O)Nc2nccs2)cc1C
    /	-5.1%	?	?	-19.7%
CCc1sc(C(=O)Nc2nc(-c3ccccn3)cs2)cc1C
    4.1%	-3.3%	2.91µM*	4.11µM*	/
CCc1sc(C(=O)Nc2ccc(N3CCOCC3)cc2)cc1C
    8.8%	-4.4%	20.6µM*	?	/
CCOC(=O)c1ccc(NC(=S)N(CCCN2CCCCC2)Cc2ccco2)cc1
    4.7%	-9.4%	-9.5%	?	-14.2%
Oc1ccc(Nc2ncnc3c2oc2ccccc23)cc1
    /	?	?	14.6µM*	-86.0%
Cc1ccc(Nc2nc(C)nc3c2oc2ccccc23)cc1
    4.8%	-2.5%	?	?	9.2%
c1ccc2c(c1)oc1c(NCCN3CCOCC3)ncnc12
    1.0%	8.5%	-12.5%	-12.8%	-28.1%
Cc1nc(NCCc2ccccc2)c2oc3ccccc3c2n1
    0.0%	-3.0%	8.2µM*	9.2µM*	17.1%
Oc1ccccc1Nc1ncnc2c1oc1ccccc12
    3.1%	5.7%	-20.5%	-29.3%	-39.2%
Cc1nc(Nc2ccccc2)c2oc3ccc(Cl)cc3c2n1
    /	-1.6%	?	23.1µM*	-37.3%
c1ccc2c(c1)oc1c(Nc3ccc(CN4CCOCC4)cc3)ncnc12
    3.1%	-7.3%	?	14.6µM*	?
COc1ccc(S(=O)(=O)N2CCN(S(=O)(=O)c3c(F)cccc3F)CC2)cc1
    0.0%	/	/	/	/
